# From paper PMC7723054
# This is one part of the list.
# T1: LIN28A (human?, UniProt Q9H9Z2 1-209)
# T1 sequence: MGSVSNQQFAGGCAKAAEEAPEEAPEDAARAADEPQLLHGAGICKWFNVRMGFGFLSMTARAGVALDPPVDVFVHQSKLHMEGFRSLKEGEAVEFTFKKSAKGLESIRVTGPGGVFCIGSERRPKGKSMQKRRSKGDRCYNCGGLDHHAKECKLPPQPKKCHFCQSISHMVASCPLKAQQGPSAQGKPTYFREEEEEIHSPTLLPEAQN
# T2: CIRBP (Homo sapiens, UniProt Q14011 1-172)
# T2 sequence: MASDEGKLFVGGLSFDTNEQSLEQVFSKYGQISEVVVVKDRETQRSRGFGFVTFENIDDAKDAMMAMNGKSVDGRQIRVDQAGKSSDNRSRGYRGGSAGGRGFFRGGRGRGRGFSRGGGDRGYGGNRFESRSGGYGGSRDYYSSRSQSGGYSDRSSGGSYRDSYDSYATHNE
# T3: DHX36 (Homo sapiens, UniProt Q9H2U1 1-1008)
# T3 sequence: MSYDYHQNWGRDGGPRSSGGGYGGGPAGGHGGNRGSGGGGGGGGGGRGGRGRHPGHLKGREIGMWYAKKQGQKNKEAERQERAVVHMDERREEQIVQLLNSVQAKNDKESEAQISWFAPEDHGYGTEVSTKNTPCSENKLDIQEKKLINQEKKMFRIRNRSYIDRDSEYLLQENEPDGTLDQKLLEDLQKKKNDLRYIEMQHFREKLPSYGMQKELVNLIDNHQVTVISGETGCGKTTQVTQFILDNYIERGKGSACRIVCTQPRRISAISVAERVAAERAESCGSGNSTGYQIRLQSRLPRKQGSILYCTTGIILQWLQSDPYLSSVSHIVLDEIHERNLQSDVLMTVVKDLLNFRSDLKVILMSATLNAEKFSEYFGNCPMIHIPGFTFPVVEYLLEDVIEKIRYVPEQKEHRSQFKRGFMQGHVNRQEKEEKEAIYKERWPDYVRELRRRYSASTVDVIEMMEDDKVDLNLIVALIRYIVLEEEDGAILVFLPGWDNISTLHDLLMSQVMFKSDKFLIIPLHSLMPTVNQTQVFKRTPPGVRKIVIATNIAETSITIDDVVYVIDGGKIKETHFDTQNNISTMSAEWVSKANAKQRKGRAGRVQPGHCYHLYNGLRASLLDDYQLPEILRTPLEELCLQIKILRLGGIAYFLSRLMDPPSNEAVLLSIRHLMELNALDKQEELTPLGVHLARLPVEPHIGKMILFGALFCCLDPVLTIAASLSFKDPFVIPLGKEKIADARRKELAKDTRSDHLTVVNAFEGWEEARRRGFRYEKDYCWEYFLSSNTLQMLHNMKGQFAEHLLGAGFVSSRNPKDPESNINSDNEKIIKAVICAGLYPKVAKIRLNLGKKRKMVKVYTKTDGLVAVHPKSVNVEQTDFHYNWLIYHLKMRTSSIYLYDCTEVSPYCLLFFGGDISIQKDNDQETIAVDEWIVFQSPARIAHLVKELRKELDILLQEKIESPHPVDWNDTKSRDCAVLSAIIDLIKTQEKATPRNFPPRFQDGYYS
# B1: hsa-mir-3191 (structured_RNA)
# RNA: GGGAAUGCAAUGGCGACACCCUGGUAAUGGUGUACGAAGUUUCAGCUCCACACUGACAAGGGCCGUGGGGGCUGAAGCUUCGUGCAC
# B2: hsa-mir-4684 (structured_RNA)
# RNA: GGGAGACGUUUUCAUCUGAUGUUGGAGCGGUGUACGAAGUUUCAGCAACAUACAUUUGUCUUGGUGUGUUGCUGAAGCUUCGUGCAC
# B3: hsa-mir-548t (structured_RNA)
# RNA: GGGAGCCGAACUACCGUAACUCUCGGCAGGUGUACGAAGUUUCAGCUUUUGCAAUUUUUUAAUGACAAAAGCUGAAGCUUCGUGCAC
# B4: hsa-mir-643 (structured_RNA)
# RNA: GGGAAAACGGCUCUUGGCAAGAUCCACCGGUGUACGAAGUUUCAGCAAGUAGUUGGCGUCUUCAGAGACACUUGCUGAAGCUUCGUGCAC
# B5: hsa-mir-7151 (structured_RNA)
# RNA: GGGAAGAAUAGCGGGUCGGCGAAUAGACGGUGUACGAAGUUUCAGCAUUGGCUUGGAUUCUGCAAAGCCUGCUGAAGCUUCGUGCAC
# B6: hsa-mir-1263 (structured_RNA)
# RNA: GGGAGUGCAUUCAGAACGAAUCGUAUGUGGUGUACGAAGUUUCAGCGAGUAUUUUAAUACUGGCAUACUCGCUGAAGCUUCGUGCAC
# B7: hsa-mir-3672 (structured_RNA)
# RNA: GGGAAUACGCGGACACGGGAACCUGUUAGGUGUACGAAGUUUCAGCUCUUAGACUAUUACAAGAGCUGAAGCUUCGUGCAC
# B8: hsa-mir-4766 (structured_RNA)
# RNA: GGGAACGGGACGACUUUAUACUAGGACUGGUGUACGAAGUUUCAGCGUGUUUAUUUUUUACUAAAUAGGCUGAAGCUUCGUGCAC
# B9: hsa-mir-4632 (structured_RNA)
# RNA: GGGAACGUCCCAUCGUGCCUAAAGAGAUGGUGUACGAAGUUUCAGCGGCGGAGGCAGGCGUGACCGUUUGCCGCUGAAGCUUCGUGCAC
# B10: hsa-mir-545 (structured_RNA)
# RNA: GGGAACCAUACAGGCGUUCCAUGGUAACGGUGUACGAAGUUUCAGCUAGAUGAAUAAAUGAAUGACUCAUCAGCUGAAGCUUCGUGCAC
# B11: hsa-mir-648 (structured_RNA)
# RNA: GGGACACGGUAGGGAAACCCACCAACUAGGUGUACGAAGUUUCAGCUGGUGGGGGCCGGGGCAGGCCCAGCGAAAGCUGAAGCUUCGUGCAC
# B12: hsa-mir-3654 (structured_RNA)
# RNA: GGGAAGAGACCCAACACAGUGAGGUCGAGGUGUACGAAGUUUCAGCCAUCACUGGAAUGUUCCAGCGACUGCUGAAGCUUCGUGCAC
# B13: hsa-mir-331 (structured_RNA)
# RNA: GGGAGACGCGGAAUGACAUAUGAGUUUAGGUGUACGAAGUUUCAGCGGAUCCCAGAUCAAACCAGGCCCGCUGAAGCUUCGUGCAC
# B14: hsa-mir-449a (structured_RNA)
# RNA: GGGAAGAUCAGGUCUGUAGCCACACUCAGGUGUACGAAGUUUCAGCUGGUUGAAUAUGUGAAUGGCAUCGGCUGAAGCUUCGUGCAC
# B15: PARIS_ID7 (structured_RNA)
# RNA: GGGAUACUAGCGGAAGGAUGAUCAUUCAGGUGUACGAAGUUUCAGCUAUUACCGGUUUUCCAUUUAUGAUGGUAAUAGCUGAAGCUUCGUGCAC
# B16: hsa-mir-638 (structured_RNA)
# RNA: GGGCAAGGAUGCCUCUCAGCCAAUAAUGGGUGUACGAAGUUUCAGCUAGGGCGCGGAGGGCGGACCGGGAAGCUGAAGCUUCGUGCAC
# B17: hsa-mir-4726 (structured_RNA)
# RNA: GGGACGUGAUGGGUGCUCAGCCCAAAAUGGUGUACGAAGUUUCAGCGAGUGGUCGGGUCGACUGAACCGCUGAAGCUUCGUGCAC
# B18: hsa-mir-548aj-1 (structured_RNA)
# RNA: GGGACUAGAGCACGUGUUCAUAGAUCAUGGUGUACGAAGUUUCAGCUAUGCCAUUAAAAGUAAUGGUAAAGCUGAAGCUUCGUGCAC
# B19: hsa-mir-3130-2 (structured_RNA)
# RNA: GGGAAGAGGUUUCAUCGGCGGACGCUAGGGUGUACGAAGUUUCAGCCAGCCUUGACAACAGGCUGGCUGAAGCUUCGUGCAC
# B20: hsa-mir-3914-1 (structured_RNA)
# RNA: GGGAGACCUCACCAUCGGGAGUAUUGGUGGUGUACGAAGUUUCAGCCCUUCUAAUGAGUAUGCUUAACUUGGUAGAAGGGCUGAAGCUUCGUGCAC
# B21: hsa-mir-20b (structured_RNA)
# RNA: GGGAAAACUUUAUGGGCGCGAUCAGCUCGGUGUACGAAGUUUCAGCCAGGUAGUUUUGGCAUGACUCUACUGGCUGAAGCUUCGUGCAC
# B22: hsa-mir-410 (structured_RNA)
# RNA: GGGAGGGUAUCGUCAGCUCAGUGUAAUAGGUGUACGAAGUUUCAGCAGUUCGCUUUUAUUAAUGACGAAUAGCUGAAGCUUCGUGCAC
# B23: hsa-mir-3678 (structured_RNA)
# RNA: GGGACCAACUUAUGCUAGUGCAGCGUGGGGUGUACGAAGUUUCAGCGCUGUGUUGAAUGAUUGGUGAGUUUGUUUGCUCAUUGAUUGAAUCACUGCGCUGAAGCUUCGUGCAC
# B24: hsa-mir-1299 (structured_RNA)
# RNA: GGGACCACUCGGGGAAAGGACCUAUCCAGGUGUACGAAGUUUCAGCGGAAUCCUACGUGAGGGACAAUCAUUCAGACCCACGUAGCAGUGUUCUGCUGAAGCUUCGUGCAC
# B25: hsa-mir-148a (structured_RNA)
# RNA: GGGAAUCCUACCAGGGCUGUUAAAUGAUGGUGUACGAAGUUUCAGCCCGACUCUGAGUAUGAUAGAAGUCGCUGAAGCUUCGUGCAC
# B26: hsa-mir-548e (structured_RNA)
# RNA: GGGACGGGGCGCAAACUAUGAUUAUAUCGGUGUACGAAGUUUCAGCUUUUGCUAUUACUUUUAAAGGCAAAAGCUGAAGCUUCGUGCAC
# Experiments:
# Test in all cases: FOREST: bead pull-down of RNA structure library v1, barcode microarray; U1A/LIN28A: 20 mM HEPES pH 7.5, 80 mM KCl, 20 mM NaCl, 10% glycerol, 2 mM DTT, 0.1 ug/uL BSA, 4 C; BG4/CIRBP/DHX36: 10 mM Tris-HCl pH 7.5, 100 mM KCl (or LiCl),; high values mean tight binding
# LIN28A = target: T1, LIN28A
# CIRBP = target: T2, CIRBP
# DHX36 = target: T3, DHX36
binder,measurement,setting,value
B1,binding signal,LIN28A,0.547 z-score
same,binding signal,CIRBP,0.819 z-score
same,binding signal,DHX36,-0.741 z-score
B2,binding signal,LIN28A,0.569 z-score
same,binding signal,CIRBP,-0.0137 z-score
same,binding signal,DHX36,-0.118 z-score
B3,binding signal,LIN28A,0.56 z-score
same,binding signal,CIRBP,-0.443 z-score
same,binding signal,DHX36,-0.0175 z-score
B4,binding signal,LIN28A,0.604 z-score
same,binding signal,CIRBP,0.658 z-score
same,binding signal,DHX36,0.198 z-score
B5,binding signal,LIN28A,0.613 z-score
same,binding signal,CIRBP,1.33 z-score
same,binding signal,DHX36,-0.029 z-score
B6,binding signal,LIN28A,0.612 z-score
same,binding signal,CIRBP,0.621 z-score
same,binding signal,DHX36,-0.354 z-score
B7,binding signal,LIN28A,0.562 z-score
same,binding signal,CIRBP,-0.327 z-score
same,binding signal,DHX36,-0.521 z-score
B8,binding signal,LIN28A,0.565 z-score
same,binding signal,CIRBP,0.465 z-score
same,binding signal,DHX36,0.554 z-score
B9,binding signal,LIN28A,0.611 z-score
same,binding signal,CIRBP,1.09 z-score
same,binding signal,DHX36,1.46 z-score
B10,binding signal,LIN28A,0.584 z-score
same,binding signal,CIRBP,-0.298 z-score
same,binding signal,DHX36,0.91 z-score
B11,binding signal,LIN28A,0.591 z-score
same,binding signal,CIRBP,2.58 z-score
same,binding signal,DHX36,3.42 z-score
B12,binding signal,LIN28A,0.563 z-score
same,binding signal,CIRBP,0.00697 z-score
same,binding signal,DHX36,0.929 z-score
B13,binding signal,LIN28A,0.558 z-score
same,binding signal,CIRBP,0.974 z-score
same,binding signal,DHX36,0.729 z-score
B14,binding signal,LIN28A,0.579 z-score
same,binding signal,CIRBP,0.534 z-score
same,binding signal,DHX36,-0.219 z-score
B15,binding signal,LIN28A,0.571 z-score
same,binding signal,CIRBP,0.652 z-score
same,binding signal,DHX36,-0.0159 z-score
B16,binding signal,LIN28A,0.595 z-score
same,binding signal,CIRBP,-0.633 z-score
same,binding signal,DHX36,1.84 z-score
B17,binding signal,LIN28A,0.585 z-score
same,binding signal,CIRBP,0.592 z-score
same,binding signal,DHX36,0.89 z-score
B18,binding signal,LIN28A,0.567 z-score
same,binding signal,CIRBP,0.108 z-score
same,binding signal,DHX36,-0.98 z-score
B19,binding signal,LIN28A,0.599 z-score
same,binding signal,CIRBP,0.141 z-score
same,binding signal,DHX36,-0.0336 z-score
B20,binding signal,LIN28A,0.597 z-score
same,binding signal,CIRBP,-0.808 z-score
same,binding signal,DHX36,-0.358 z-score
B21,binding signal,LIN28A,0.563 z-score
same,binding signal,CIRBP,0.71 z-score
same,binding signal,DHX36,-0.272 z-score
B22,binding signal,LIN28A,0.572 z-score
same,binding signal,CIRBP,0.189 z-score
same,binding signal,DHX36,0.0191 z-score
B23,binding signal,LIN28A,0.593 z-score
same,binding signal,CIRBP,-0.916 z-score
same,binding signal,DHX36,0.108 z-score
B24,binding signal,LIN28A,0.54 z-score
same,binding signal,CIRBP,0.414 z-score
same,binding signal,DHX36,0.33 z-score
B25,binding signal,LIN28A,0.61 z-score
same,binding signal,CIRBP,0.0289 z-score
same,binding signal,DHX36,-0.748 z-score
B26,binding signal,LIN28A,0.616 z-score
same,binding signal,CIRBP,0.384 z-score
same,binding signal,DHX36,0.0012 z-score
